Assay outcomes as filed in PubChem BioAssay.
In the library only some 0.34% were active in any assay of this set; here they are far more common.
Eya2 phos inh: Eya2 (human) phosphatase inhibition | O00167 | Potency, µM (highest dose often 76.9 µM), for inactives: top-dose activity, negative = inhibition, most hits filed as inhibitors | recombinant Eya2, OMFP fluorescence dephosphorylation (OMFP is methylfluorescein phosphate) | actives 0.006% (n = 330,000); note: % is set by controls: 0 for no effect and ±100 for the full control effect
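Eya2 (0.2 uM) preincubated 10 min at ambient with compound, then OMFP substrate added at 50 uM; 10 min reaction in 50 mM HEPES pH 7.5, 50 mM NaCl, 5 uM MgCl2, 0.05% BSA, 1 mM DTT. Fluorescence read at Ex 485/Em 525 nm.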
Rango complex inh: inhibitors of Rango-importin beta complex formation; Q14974; Rango CFP/YFP FRET sensor + importin beta, 45 min; Potency, µM (doses to about 92.2 µM), without a hit: at the highest dose inhibition of complex formation; actives 0.031% (n = 340,000); AID 540263; calls by dose curve;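 note: 0% = DMSO wells and 100% = buffer wells lacking importin beta; nearly all actives have a fitted effect of over 15% in size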
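Inhibition scored from the CFP 486 nm/YFP 530 nm FRET ratio 45 min after adding 0.125 microM importin beta to 50 nM Rango biosensor preincubated 5 min with compound (room temperature, PBS with DTT, Tween-20, BSA). No-importin wells as positive control.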
Vif-A3F inh: inhibitors of Vif-A3F interaction. Potency, µM (doses to about 46.1 µM), for inactives: top-dose activity, negative = active. HeLa A3F-eYFP + Vif (tagged APOBEC3F with the HIV-1 protein that degrades it), YFP fluorescence increase. actives 0.2% (n = 390,000); note: % of control where 0% means no effect; nearly all actives have a fitted effect of over 65% in size
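HeLa cells stably expressing Vif plus C-terminally eYFP-tagged A3F were seeded, incubated overnight at 37 deg C, dosed with compound, incubated overnight again at 37 deg C. Yellow fluorescence (Ex 488/Em 500-530) reported blocked Vif-mediated A3F-eYFP degradation.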
Vif-A3G inh: blocks the Vif interaction with human APOBEC3G; AID 602310; Potency, µM (titrated, usually from 46.1 µM), without a hit: at the highest dose activity, negative = active, hits mostly inhibitors; actives 0.076% (n = 410,000); Q9HC16; HeLa A3G-eYFP + Vif (tagged APOBEC3G with the HIV-1 protein that degrades it), YFP fluorescence, overnight; note: % is set by controls: 0 for no effect and ±100 for the full control effect; nearly all actives have a fitted effect of over 60% in size
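Read-out is eYFP fluorescence (Ex 488/Em 500-530) from Vif-expressing HeLa A3G-eYFP cells; more signal means A3G escaped Vif-mediated degradation. Cells plated overnight, compound pinned in, incubated overnight at 37 deg C.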
Rango release inh: prevents RanGTP from dissociating the Rango-importin beta complex; actives 0.071% (n = 340,000); Biochemical FRET Rango-importin beta, RanGTP-induced dissociation; AID 540253; Potency, µM (top dose mostly 46.1 µM), for the others: top-dose activity change, negative = inhibition; O95149+P62826; calls by dose curve; note: % of control where 0% means no effect; nearly all actives have a fitted effect of over 45% in size
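Rango (0.1 uM)–importin beta (0.25 uM) complex; RanGTP-RCC1 trigger; 45 min RT; CFP/YFP FRET read.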
ASM inhibitor: inhibitors of human secretory acid sphingomyelinase. placental ASM, HMU-PC fluorogenic substrate, 60 min. Potency, µM (doses to about 57.5 µM), without a hit: at the top dose activity change, negative = inhibition, usual class: inhibitors. actives 0.006% (n = 340,000). AID 504937
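Human placenta-derived ASM preincubated with compound 10 min at room temperature, then reacted with 9 uM (final) fluorogenic HMU-PC substrate for 60 min at 37 C. Stop solution raises pH to 10; fluorescence read at Ex 386/Em 447 nm.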
Numbers without * were called inactive; i = inactive; u = inconclusive; x = no result; [ ] = dose if it differs, or a comment. Unless noted, calls come from the whole dose curve; as a rule, active = well fitted curve in the direction sought with a large enough effect; inconclusive = small, poorly fitted or top-dose-only effect, or another doubt; inactive = no such curve, though single readings can be large; an effect the other way counts as inactive or inconclusive. Potency is the fitted concentration of half-maximal effect.

(1) O=C(NCc1ccc(F)cc1)c1cccc2c1C(=O)c1ccc(Cl)cc1S2(=O)=O
(2) CC(C)c1cccc(-c2ccc3c(c2)S(=O)(=O)c2cccc(C(=O)NCc4ccccc4)c2C3=O)c1
(3) C/C(=N/N=C(\C)c1ccccc1O)c1ccccc1O
(4) CCC(=NN=C(CC)c1ccccc1O)c1ccccc1O
(5) COc1cc(-c2cc(O)c(-c3ccc4ccccc4n3)c(=O)[nH]2)cc(OC)c1OC
(6) COc1cc(-c2cc(C(=O)Nc3ccc(O)cc3)c3ccccc3n2)cc(OC)c1OC
(7) COCCOC(=O)N1CCN(/[N+]([O-])=N/Oc2ccc([N+](=O)[O-])cc2[N+](=O)[O-])CC1
(8) COc1ccc(-c2noc(-c3ccc(N4CCN(c5ccc(OC)cc5)CC4)c([N+](=O)[O-])c3)n2)cc1

assay / entry | 1 | 2 | 3 | 4 | 5 | 6 | 7 | 8
Eya2 phos inh | -6.7% | 4.5% | 1.9% | x | x | -4.1% | x | x
Rango complex inh | x | -3.4% | u | 2.9% | u | -0.9% | x | x
Vif-A3F inh | x | 10µM* | 17.8µM* | -0.3% | 11.2µM* | 2.5% | x | 7.3%
Vif-A3G inh | x | 1.9% | -2.3% | -1.2% | 10µM* | -8.8% | -3.2% | 4.4%
Rango release inh | x | 1.1% | u | 9.6% | u | -0.3% | x | x
ASM inhibitor | x | -4.1% | -0.5% | -14.6% | 50.0% | -8.0% | x | x

Record cards, from the list above. Order of values: Eya2 phos inh, Rango complex inh, Vif-A3F inh, Vif-A3G inh, Rango release inh, ASM inhibitor
`COCCOC(=O)N1CCN(/[N+]([O-])=N/Oc2ccc([N+](=O)[O-])cc2[N+](=O)[O-])CC1` is entered as x, x, x, -3.2%, x, x
`CC(C)c1cccc(-c2ccc3c(c2)S(=O)(=O)c2cccc(C(=O)NCc4ccccc4)c2C3=O)c1` is entered as 4.5%, -3.4%, 10µM*, 1.9%, 1.1%, -4.1%

Next part
(9) Cn1cccc1/C=C1\SC(=O)N(c2ccc(O)cc2)C1=O
(10) COc1cccc(C2=CC(c3ccc(OC)c(OC)c3)NC(=S)N2)c1 (stereo unspecified)
(11) COc1cccc(NC2=Nc3cccc4cccc2c34)c1
(12) COC(=O)CCC(=O)OC1(C)C(=O)C2=CN(Cc3ccccc3)C(c3ccc(OC)cc3)=CC2=C(Br)C1=O (stereo unspecified)
(13) COC(=O)CCC(=O)OC1(C)C(=O)C2=CN(c3ccccc3)C(c3ccc(OC)cc3)=CC2=C(Br)C1=O (stereo unspecified)
(14) COc1ccc(-c2ccc(-c3noc(-c4ccccc4C)n3)c(OC)n2)cc1
(15) CC1=C(C(=O)OCc2ccccc2)N2C(=O)[C@@H](NC(=O)OCc3ccccc3)[C@H]2SC1
(16) Cc1ccc(-c2c(C(=O)Nc3ccc(F)c(F)c3)oc(=O)c3ccccc23)cc1

assay / entry | 9 | 10 | 11 | 12 | 13 | 14 | 15 | 16
Eya2 phos inh | 4.7% | -14.4% | -2.2% | x | x | -7.8% | x | x
Rango complex inh | u | u | 58µM* | u | u | u | x | x
Vif-A3F inh | 25.1µM* | -7.6% | -10.3% | 0.3% | 0.9% | -3.0% | x | 1.1%
Vif-A3G inh | u | -0.7% | -15.7% | -1.3% | -5.5% | 0.1% | 2.0% | 2.6%
Rango release inh | u | 7.31µM* | 2.0% | u | 16.4µM* | 6.51µM*[inhibitor] | x | x
ASM inhibitor | -0.7% | 4.7% | -12.0% | 34.9% | 14.1% | 62.0% | x | x

(17) C[N+](C)(C)c1ccc(/C=C/c2ccnc3ccccc23)cc1
(18) C(=C\c1ccco1)/C1=NN(c2ccccc2)C(c2ccco2)C1 (stereo unspecified)
(19) COc1ccc(-n2nc3ccc(N)cc3n2)cc1
(20) CCOc1ccc(-n2nc3ccc(N)cc3n2)cc1
(21) Cc1ccccc1Cn1c(=N)n(CC(=O)c2ccc([N+](=O)[O-])cc2)c2ccccc21
(22) COc1ccc(C2NC(=O)N(C)C3=C2C(=O)N(c2cccc(Cl)c2)C3)cc1 (stereo unspecified)
(23) CC(C)(C)c1ccc(OCC(=O)Nc2ccc3c4c(cccc24)C(=O)NC3=O)cc1
(24) Cc1[nH]c2ccccc2c1/C=C/C(=O)c1ccccc1
(25) Cn1c(=O)n(C/C=C/c2ccccc2)c(=O)c2c1nc1n2CCN1c1ccc(F)cc1
(26) COc1ccc2[nH]c(C)c(C(=O)CNc3nccs3)c2c1

assay / entry | 17 | 18 | 19 | 20 | 21 | 22 | 23 | 24 | 25 | 26
Eya2 phos inh | x | 8.6% | x | 2.1% | -5.0% | x | 11.5% | -1.5% | x | x
Rango complex inh | x | u | x | u | 2.4% | x | u | u | x | x
Vif-A3F inh | x | 25.1µM* | -0.3% | -12.6% | 28.2µM* | 4.3% | 12.6µM* | 28.2µM* | -0.2% | x
Vif-A3G inh | 7.5% | u | -3.7% | -7.0% | -28.2% | -5.8% | 3.5% | u | 4.4% | -1.4%
Rango release inh | x | u | x | 5.17µM* | -20.3% | x | u | u | x | x
ASM inhibitor | x | i | x | i | -8.4% | x | 257.1% | 20.6% | x | x
